Results on one substance are retold here after patent US20110027909A1, “Chimera Compositions and Methods of Use” (priority 2009, published 2011).

Chains of the proteins cited; added tags and fusions are not shown. Lines headed by an entry give the natural chain unless they say otherwise; changes in a name come on top. A line that says so, or that is headed by a name, gives the form on record, which may keep a tag or linker.
UniProt P24387: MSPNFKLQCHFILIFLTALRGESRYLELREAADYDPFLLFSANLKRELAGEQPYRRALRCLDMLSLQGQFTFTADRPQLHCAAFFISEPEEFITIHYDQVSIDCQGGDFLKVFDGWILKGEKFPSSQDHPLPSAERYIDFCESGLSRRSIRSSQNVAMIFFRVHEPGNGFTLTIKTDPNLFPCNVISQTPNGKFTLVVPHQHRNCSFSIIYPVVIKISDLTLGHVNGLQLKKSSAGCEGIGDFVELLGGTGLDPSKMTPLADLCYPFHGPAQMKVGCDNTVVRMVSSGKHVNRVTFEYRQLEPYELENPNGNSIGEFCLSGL
CRF-BP_NK1R chimera (Homo sapiens, UniProt P24387+P25103), UniProt P24387+P25103, fused, stated change not applied: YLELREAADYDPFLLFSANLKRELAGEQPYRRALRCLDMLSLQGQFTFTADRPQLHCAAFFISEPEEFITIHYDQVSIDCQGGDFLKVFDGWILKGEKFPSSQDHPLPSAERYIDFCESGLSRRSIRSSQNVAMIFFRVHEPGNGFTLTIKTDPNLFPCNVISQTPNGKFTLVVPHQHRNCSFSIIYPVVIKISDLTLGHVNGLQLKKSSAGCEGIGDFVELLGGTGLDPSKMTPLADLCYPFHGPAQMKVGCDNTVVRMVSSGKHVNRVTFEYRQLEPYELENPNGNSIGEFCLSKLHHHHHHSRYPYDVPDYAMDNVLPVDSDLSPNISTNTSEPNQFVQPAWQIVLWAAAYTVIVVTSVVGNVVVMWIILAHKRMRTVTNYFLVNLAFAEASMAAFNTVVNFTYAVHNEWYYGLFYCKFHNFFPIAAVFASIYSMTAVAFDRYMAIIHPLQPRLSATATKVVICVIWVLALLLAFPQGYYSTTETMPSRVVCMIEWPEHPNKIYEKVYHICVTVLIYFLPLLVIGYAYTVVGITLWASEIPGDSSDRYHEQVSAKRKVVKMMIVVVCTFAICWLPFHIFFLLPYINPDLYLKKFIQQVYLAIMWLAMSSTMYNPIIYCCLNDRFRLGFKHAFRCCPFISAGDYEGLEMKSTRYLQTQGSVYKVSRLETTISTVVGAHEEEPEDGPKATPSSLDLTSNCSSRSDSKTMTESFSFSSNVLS
UniProt P25103, whole entry: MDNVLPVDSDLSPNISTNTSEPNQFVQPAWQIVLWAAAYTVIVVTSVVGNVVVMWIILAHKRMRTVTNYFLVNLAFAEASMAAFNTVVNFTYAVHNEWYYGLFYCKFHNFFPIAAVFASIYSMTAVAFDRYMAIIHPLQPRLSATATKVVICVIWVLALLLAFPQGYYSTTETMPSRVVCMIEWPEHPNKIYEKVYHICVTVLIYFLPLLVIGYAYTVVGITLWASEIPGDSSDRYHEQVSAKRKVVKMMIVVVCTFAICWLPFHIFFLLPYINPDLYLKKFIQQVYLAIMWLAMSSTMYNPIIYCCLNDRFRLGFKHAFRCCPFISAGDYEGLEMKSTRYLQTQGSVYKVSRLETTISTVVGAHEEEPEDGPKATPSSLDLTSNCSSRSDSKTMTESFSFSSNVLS

Assay [1] has as its target T1, CRF-BP_NK1R chimera (Homo sapiens, UniProt P24387+P25103).
T1 construct: the construct used to create a CRF-BP(FL)_NK1R chimera; FLAG (N); expressed in transfected cells
The assay is described as follows: FLIPR intracellular calcium release, HEK-293 cells expressing CRF-BP_NK1R chimera. The format is cell-based. To be noted: 1 pM-10 μM, FIGS. 9, 10. In general terms: Calcium flux is commonly read through the fluorescence of an indicator in the cells.

Assay [2] deals with NK1R (Homo sapiens, UniProt P25103). The assay is described as follows: FLIPR intracellular calcium release, HEK-293 cells expressing full-length NK1-R. The class given is cell-based. As to conditions: Substance P, FIG. 11.

Substance P: the entries for the “intracellular calcium release (RFU)” value in assay [1] and in assay [2] were “different levels of Substance P-induced (1 pM-10 μM) intracellular calcium release in the HEK-293 cells corresponding to the concentration of Substance P” and “intracellular calcium release achieved”, respectively.
